The values that follow are results of earlier work, collected in US20180272346A1, “MODULAR ORGAN MICROPHYSIOLOGICAL SYSTEM WITH MICROBIOME” (Massachusetts Institute of Technology, priority 2017, published 2018).

Series [1] concerns liver MPS from LIVERCHIP
As to conditions: scaled liver MPS from LIVERCHIP, in vitro; cited from earlier work.

Series [2] deals with immune-competent liver MPS (hepatocytes and Kupffer cells). As to conditions: cited from earlier work.

Turning to `O=C(O)Cc1ccccc1Nc1c(Cl)cccc1Cl` [Diclofenac, diclofenac], the “diclofenac elimination rate constant” value in series [1] is reported as 5.66×10^−9 (cell*min)^−1. Also, the liver functions result in series [2] was “impaired”.
